The source of these data is patent US20230382904A1, “SUBSTITUTED 4-([1,2,4]TRIAZOLO[1,5-a]PYRIDIN-6-YL)THIOPHENE-2-CARBOXAMIDE DERIVATIVES AND USE THEREOF” (The Johns Hopkins University, priority 2020, published 2023).

Sequences of proteins named here, by UniProt entry; tags and fusion partners are left off. Residues count along the entry.
UniProt Q12852, 1-520: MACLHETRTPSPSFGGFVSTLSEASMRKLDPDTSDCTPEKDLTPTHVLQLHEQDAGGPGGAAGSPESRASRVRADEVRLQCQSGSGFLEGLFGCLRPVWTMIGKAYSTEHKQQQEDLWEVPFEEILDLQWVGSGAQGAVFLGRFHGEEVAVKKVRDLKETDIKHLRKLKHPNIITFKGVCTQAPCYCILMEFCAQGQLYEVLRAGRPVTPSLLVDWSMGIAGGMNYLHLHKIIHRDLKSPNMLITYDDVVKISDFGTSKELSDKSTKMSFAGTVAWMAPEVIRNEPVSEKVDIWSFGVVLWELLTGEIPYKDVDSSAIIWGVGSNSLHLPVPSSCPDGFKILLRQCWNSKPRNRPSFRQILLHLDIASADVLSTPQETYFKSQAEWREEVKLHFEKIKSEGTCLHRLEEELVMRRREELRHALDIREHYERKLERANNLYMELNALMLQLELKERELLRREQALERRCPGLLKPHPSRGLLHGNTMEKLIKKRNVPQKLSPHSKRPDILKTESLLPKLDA

The target in this experiment is DLK (Homo sapiens (Human), UniProt Q12852). The experiment is described as follows: DLK biochemical assay (TR-FRET, MKK7 phosphorylation). Here is the method: DLK assay is a biochemical assay format designed to screen for inhibitors of DLK. Enzymatic activity of DLK was measured by monitoring phosphorylation of the physiological substrate MKK7 (MAP2K7, Dual specificity mitogen-activated protein kinase kinase 7). Phosphorylation was detected by a TR-FRET system whereby His-tagged MKK7 was labeled by a XL665-labeled anti-His antibody (FRET acceptor, emission 665 nm). DLK phosphorylates MKK7 at T275/S277, which was detected by an Eu-labeled anti-phospho-MKK7 (T275/S277) antibody (F RET donor, excitation 340 nm). Phosphorylation of MKK7 results in an increased TR-FRET signal (Ratio XL665-channel/Eu-channel) and inhibition of enzymatic activity of DLK decreases the TR-FRET signal.
Assay Protocol for 1536 MTP format: test compounds were predispensed (60 nl) in test plates; +3 μl DLK solution (10 nM DLK, catalytic domain, Carna Biosiences, 0.6 mM DTT in assay buffer); +2 μl substrate solution (15 nM MKK7, LDB; 60 μM ATP; 0.4 mM DTT in assay buffer); 90 min incubation at RT; +2 μl detection mix (5 nM XL665-labeled anti-His antibody, Cisbio; 0.1 nM Eu-labeled anti-phospho-MKK7 (T275/S277), Cisbio/Millipore in detection buffer); 16 h incubation at 37° C.; endpoint measurement BMG (HTRF). […]
A general note: TR-FRET usually uses a lanthanide donor and a delayed reading to cut background.

Where only a bound is given, the exact number is not on record here.

In general, IC50 refers to the midpoint of a concentration-inhibition curve. Low readings indicate inhibition by little substance, high ones a need for much substance. For `CC(C)NC(=O)c1cc(-c2csc(C(=O)NCc3ccc(F)cc3)c2)cn2ncnc12` [Compound 389], the IC50 was > 30 µM.
